Assays:
[1] = biological target: human JAK1 (a.a. 837-1142) (Homo sapiens (Human), UniProt P23458); assay: In vitro JAK kinase assay (HTRF), JAK1; assay type: biochemical; conditions: read-out: JAK1 IC50; 1 mM ATP
JAK2 (a.a. 828-1132) = JAK2 (a.a. 828-1132) (Homo sapiens (Human), UniProt O60674); assay: In vitro JAK kinase assay (HTRF), JAK2 relative to JAK1; assay type: biochemical; conditions: IC50 ratio, 1 mM ATP

The chains behind the UniProt entries cited, without tags or fusion partners. Residues count along the entry.
UniProt P23458, 837-1142 limits assumed: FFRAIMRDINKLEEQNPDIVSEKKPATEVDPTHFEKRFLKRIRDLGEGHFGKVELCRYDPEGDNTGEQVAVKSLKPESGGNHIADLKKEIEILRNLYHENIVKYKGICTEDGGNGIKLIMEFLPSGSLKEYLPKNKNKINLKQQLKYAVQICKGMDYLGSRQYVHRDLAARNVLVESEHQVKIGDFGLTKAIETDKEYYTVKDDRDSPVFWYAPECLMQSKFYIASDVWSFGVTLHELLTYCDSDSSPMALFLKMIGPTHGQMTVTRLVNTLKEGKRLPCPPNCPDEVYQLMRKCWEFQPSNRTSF
UniProt O60674, 828-1132 limits assumed: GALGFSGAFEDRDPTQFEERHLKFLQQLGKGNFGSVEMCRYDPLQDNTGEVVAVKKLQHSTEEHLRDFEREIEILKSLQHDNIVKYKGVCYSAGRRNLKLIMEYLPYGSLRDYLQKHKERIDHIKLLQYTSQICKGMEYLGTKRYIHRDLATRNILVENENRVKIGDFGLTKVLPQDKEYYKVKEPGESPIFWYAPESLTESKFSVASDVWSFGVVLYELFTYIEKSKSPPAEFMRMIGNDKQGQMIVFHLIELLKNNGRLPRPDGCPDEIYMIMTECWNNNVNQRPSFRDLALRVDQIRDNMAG

Question: What does the source list for `N#CCC(CN1CCN(C(=O)c2ccc(C#N)cc2F)CC1)n1cc(-c2ncnc3[nH]ccc23)cn1` (stereo not shown)?
Answer: IC50 [1]: < 0.01 µM; JAK2/JAK1 (JAK2 (a.a. 828-1132)): >10

Question: `C[C@H](NC(=O)c1cc(F)c(N2CC(CC#N)(n3cc(-c4ncnc5[nH]ccc45)cn3)C2)cc1F)C(F)(F)F` was tested. Which IC50 [1] did it give?
Answer: The IC50 was less than 0.01 µM.

Question: And the JAK2/JAK1 (JAK2 (a.a. 828-1132))?
Answer: The JAK2/JAK1 was greater than 10.

Reference: US11596632B2, “JAK1 pathway inhibitors for the treatment of gastrointestinal disease” (Incyte Corporation, priority 2018, dated 2023)
